According to patent publication US20120201826A1 (NOV IMMUNE S A, published 2012):
Numbering of substitutions follows the chain as printed.

Key:
[1] = biological target: T1, NusA-cynoRANTES fusion protein (cynomolgus monkey, UniProt Q8HYQ1 24-91 (rhesus entry), biotinylated in vivo at the AviTag); test: SPR (Biacore 2000), 1E4 captured on anti-human IgG, chemokine as analyte, 25 C, 1:1 Langmuir fit
T1 construct: also called cynomolgus RANTES; not shown: NusA fusion partner of expression plasmid pET43 (Novagen); Factor X protease cleavage site at the C-terminus of NusA; AviTag biotinylation site at the C-terminus of the chemokine
T1 sequence: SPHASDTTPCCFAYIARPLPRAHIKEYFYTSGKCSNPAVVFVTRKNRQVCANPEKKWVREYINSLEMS
Description: (§1) The affinity and binding kinetics of 1E4 on human RANTES and cynomolgus RANTES were characterized on a Biacore 2000 instrument (Biacore AB, Uppsala, Sweden). 433 RU (response unit) of a donkey anti-human IgG polyclonal antibody were immobilized by EDC/NHS chemistry on a C1 Biacore chip. This surface was used to capture antibody 1E4. The surface was regenerated after each cycle by injection of 10 mM glycine pH=2 at 30 μL/min, for 60s followed by 1 min. of stabilization time in HBS-EP buffer.
(§2) Binding was measured by passing either huRANTES (Peprotech, Rocky Hill NJ) or a NusA-fusion proteins of human RANTES (NusA-huRANTES) and Cynomolgus RANTES (NusA-cynoRANTES) at various concentrations. All proteins were diluted in the running buffer HBS-EP buffer (Biacore AB, Uppsala, Sweden). Injection was performed at 75 μl/min for 3 min. followed by 15 min. of dissociation time and the temperature was set at 25° C. […] Very similar values were obtained using huRANTES or the NusA-huRANTES fusion, but better response signals were obtained with the fusion protein due to its larger size that induces a better response on the Biacore.

[2] = biological target: T2, recombinant human RANTES (huRANTES, Peprotech) (human, UniProt P13501 24-91); test: as above
T2 construct: Bought protein (Peprotech); also called rhuRANTES; CCL5
T2 sequence: T1 sequence with H3Y, A4S
Description: as §1, §2

[3] = biological target: T3, NusA-huRANTES fusion protein (human, UniProt P13501 24-91, biotinylated in vivo at the AviTag); test: as above
T3 construct: GenBank M21121 is printed for the human RANTES gene; also called NusA-Rantes; not shown: NusA fusion partner of expression plasmid pET43 (Novagen); Factor X protease cleavage site at the C-terminus of NusA; AviTag biotinylation site at the C-terminus of the chemokine
T3 sequence: T1 sequence with H3Y, A4S
Description: as §1, §2

[4] = biological target: T4, mouse RANTES mutant [S32G/L37P], biotinylated in vivo (mouse, UniProt P30882 24-91, biotinylated in vivo at the AviTag); test: ELISA: biotinylated chemokine captured on Streptawell plate, 1E4 at 1 µg/ml, goat anti-human IgG Fc-gamma-HRP, TMB, OD450
T4 construct: not shown: AviTag biotinylation site at the C-terminus
Description: (§3) In an ELISA, the antibody 1E4 binds with equivalent apparent affinity to both human and cynomolgus RANTES (FIG. 5). In order to identify residues potentially required on huRANTES for binding to 1E4, the RANTES protein sequences from several species were aligned as shown in FIG. 6. In the alignment, residues that are conserved between the human and cynomolgus sequences and that are different in mouse and rat RANTES to which 1E4 is unable to bind were analyzed to identify the following amino acids: A16, R17, P18, G32, P37, R59 and S64. Three mutants of mouse RANTES were generated by site directed mutagenesis in order to introduce the human residues at those positions: [S16A/L17R/A18P]; [S32G/L37P] and [Q59R/Y64S]. These mutant forms of mouse RANTES were expressed and biotinylated in vivo as described in Example 1. These variant of mouse RANTES were captured in streptavidin coated plates (Streptawell, Roche). The coating of the biotinylated chemokine was confirmed using a anti-mouse RANTES polyclonal antibody (R&D Systems). It was then tested whether the introduction of these residues could restore 1E4 binding to mouse RANTES. Briefly, mouse RANTES, human RANTES as well as three mutant forms of mouse RANTES and control supernatants were captured in Streptawell plates (Roche) for 30 minutes at room temperature. After washing, antibody 1E4 was added at a concentration of 1 μg/ml in 1% BSA-PBS and incubated for 1 hour at room temperature. The plate was washed and incubated with a goat anti-human IgG Fcγ-specific antibody coupled to horse radish peroxidase (Jackson). […] The plates were read at 450 nm.

[5] = biological target: T5, mouse RANTES mutant [S16A/L17R/A18P], biotinylated in vivo (mouse, UniProt P30882 24-91, biotinylated in vivo at the AviTag); test: as above
T5 construct: also called [S16A/L17R/A18P] mutant; not shown: AviTag biotinylation site at the C-terminus
Description: as §3

[6] = biological target: T6, mouse RANTES mutant [Q59R/Y64S], biotinylated in vivo (mouse, UniProt P30882 24-91, biotinylated in vivo at the AviTag); test: as above
T6 construct: not shown: AviTag biotinylation site at the C-terminus
Description: as §3

B1: 1E4 antibody, IgG1 format (antibody, V domains shown)
VH: QVQLVQSGAEVKKPGASVKVSCKVSGYTLTEFAMHWVRQAPGKGLEWMGGFVPEDGETIYAQKFQGRVTMTEDTSTDTAYMELSSLRSEDTAVYYCATDPLYEGSFSVWGQGTTVTVSS
VL: SYVLTQPPSVSVAPGQTARITCGGNNIESKSVHWYQQKPGQAPVLVVYDDSDRPSGIPERFSGSNSGNTATLTISRVEAGDEADYYCQVWDSNTDHWVFGGGTKLTVLG
notes: also called antibody 1E4 purified from CHO supernatant
For B1, the koff [1] was 0.00122 s⁻¹, the kon [1] was 5.46e+06 M⁻¹ s⁻¹ and the koff [2] was 0.00244 s⁻¹. For the same binder, the kon [2] was 5.36e+06 M⁻¹ s⁻¹, the koff [3] was 0.000835 s⁻¹ and the kon [3] was 1.87e+06 M⁻¹ s⁻¹. B1: no binding (tested: 1 µg/ml) [4]; binds [5]; no binding (tested: 1 µg/ml) [6].
